Source: patent US5830909A, “Angiotensin (AII) antagonists as inhibitors of the growth of adipose tissue” (American Cyanamid Company, priority 1996, dated 1998)

Protein sequences, listed by entry. Tags and fused reporters are not part of them. Lines headed by an entry give the natural chain unless they say otherwise; changes in a name come on top.
UniProt P25095, whole entry: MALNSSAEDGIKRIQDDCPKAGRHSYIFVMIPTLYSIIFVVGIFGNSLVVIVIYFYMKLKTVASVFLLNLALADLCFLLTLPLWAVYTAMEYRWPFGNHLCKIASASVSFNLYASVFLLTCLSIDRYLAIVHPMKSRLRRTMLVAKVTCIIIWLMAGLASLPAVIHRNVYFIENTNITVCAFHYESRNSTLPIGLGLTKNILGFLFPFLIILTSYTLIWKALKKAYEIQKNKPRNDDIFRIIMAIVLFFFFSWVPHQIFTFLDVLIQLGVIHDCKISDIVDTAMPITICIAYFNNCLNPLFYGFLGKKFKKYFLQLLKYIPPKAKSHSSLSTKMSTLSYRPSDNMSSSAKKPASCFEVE
UniProt P01019: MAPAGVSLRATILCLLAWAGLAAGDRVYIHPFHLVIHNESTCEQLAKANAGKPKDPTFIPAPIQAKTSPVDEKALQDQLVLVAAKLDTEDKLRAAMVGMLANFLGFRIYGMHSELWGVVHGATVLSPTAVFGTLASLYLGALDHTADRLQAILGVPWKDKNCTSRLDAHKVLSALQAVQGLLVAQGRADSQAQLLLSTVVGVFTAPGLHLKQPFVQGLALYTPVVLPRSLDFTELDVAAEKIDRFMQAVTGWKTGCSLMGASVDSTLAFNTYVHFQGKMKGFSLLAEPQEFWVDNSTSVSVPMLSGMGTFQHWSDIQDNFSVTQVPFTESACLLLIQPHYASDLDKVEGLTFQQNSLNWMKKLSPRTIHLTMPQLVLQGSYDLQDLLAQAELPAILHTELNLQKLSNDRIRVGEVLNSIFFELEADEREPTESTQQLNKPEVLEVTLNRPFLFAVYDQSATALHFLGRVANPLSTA

Columns and labels:
AII receptor [1] = molecular target: T1, AII receptor (Rattus norvegicus, UniProt P25095); assay: Displacement of 125I[Sar,Ile]AII binding in rat epididymal fat cell membranes; conditions: 1 nM radioligand, 1-4 assays, read-out: Inhibitory Constants (IC50) for displacement of 125I[Sar,Ile]AII binding, Epididymal
T1 construct: adipose tissue from the epididymal and retroperitoneal depots is quickly excised; from tissue; host or cells: membranes of collagenase-isolated adipocytes from epididymal and retroperitoneal fat of male Sprague-Dawley rats
From the text: (§1) The experimental design involves determining the binding characteristics of adipocyte membranes harvested from two different anatomic sites at three different ages. Male Sprague-Dawley rats (Charles River Laboratories, Wilmington, Mass.) are used at 40, 70 and 100 days of age. Rats are killed by carbon dioxide inhalation on the morning of the experiment, and adipose tissue from the epididymal and retroperitoneal depots is quickly excised and placed in cold saline. The spermatic artery and vein are removed from the epididymal fat, and brown fat deposits are dissected away from the retroperitoneal depot. […] Protein content of the high speed pellet is determined, the resuspended protein is either assayed immediately or stored at -75° before binding assays are performed. […] Separation of bound from free radioactivity is achieved using any appropriate filtration apparatus. […] The filters are placed in tubes, and radioactivity measured in a gamma scintillation counter programmed to correct for the half-life of the isotope. Using this experimental protocol, both the affinity (KD) and number of binding sites (Bmax) for angiotensin II on the adipocyte membrane can be calculated. The relative affinities of different anatomically distinct adipocyte membranes for a variety of peptide and nonpeptide antagonists can also be determined. […]

AII receptor [2] = molecular target: T1, AII receptor; assay: Displacement of 125I[Sar,Ile]AII binding in rat retroperitoneal fat cell membranes; conditions: 1 nM radioligand, 1-4 assays, read-out: Inhibitory Constants (IC50) for displacement of 125I[Sar,Ile]AII binding, Retroperitoneal
From the text: as §1

- IC50 (AII receptor [1]): 22.3 nM
- IC50 (AII receptor [2]): 18.5 nM
Substance: AIII: peptide ligand listed in Table 5 (RVYIHPF; Angiotensin-3; UniProt P01019 26-32, looked up) [reference compound]
